The test has as its target HDAC4 (Homo sapiens (Human), UniProt P56524). Description: HDAC enzyme activity inhibition assay, HDAC4. It counts as biochemical. The conditions noted are these: Table 2; mean of two experiments.

Amino acid sequences for entries named in this document (tags omitted). A change or cut given only in a name is not applied to a line headed by its entry.
UniProt P56524: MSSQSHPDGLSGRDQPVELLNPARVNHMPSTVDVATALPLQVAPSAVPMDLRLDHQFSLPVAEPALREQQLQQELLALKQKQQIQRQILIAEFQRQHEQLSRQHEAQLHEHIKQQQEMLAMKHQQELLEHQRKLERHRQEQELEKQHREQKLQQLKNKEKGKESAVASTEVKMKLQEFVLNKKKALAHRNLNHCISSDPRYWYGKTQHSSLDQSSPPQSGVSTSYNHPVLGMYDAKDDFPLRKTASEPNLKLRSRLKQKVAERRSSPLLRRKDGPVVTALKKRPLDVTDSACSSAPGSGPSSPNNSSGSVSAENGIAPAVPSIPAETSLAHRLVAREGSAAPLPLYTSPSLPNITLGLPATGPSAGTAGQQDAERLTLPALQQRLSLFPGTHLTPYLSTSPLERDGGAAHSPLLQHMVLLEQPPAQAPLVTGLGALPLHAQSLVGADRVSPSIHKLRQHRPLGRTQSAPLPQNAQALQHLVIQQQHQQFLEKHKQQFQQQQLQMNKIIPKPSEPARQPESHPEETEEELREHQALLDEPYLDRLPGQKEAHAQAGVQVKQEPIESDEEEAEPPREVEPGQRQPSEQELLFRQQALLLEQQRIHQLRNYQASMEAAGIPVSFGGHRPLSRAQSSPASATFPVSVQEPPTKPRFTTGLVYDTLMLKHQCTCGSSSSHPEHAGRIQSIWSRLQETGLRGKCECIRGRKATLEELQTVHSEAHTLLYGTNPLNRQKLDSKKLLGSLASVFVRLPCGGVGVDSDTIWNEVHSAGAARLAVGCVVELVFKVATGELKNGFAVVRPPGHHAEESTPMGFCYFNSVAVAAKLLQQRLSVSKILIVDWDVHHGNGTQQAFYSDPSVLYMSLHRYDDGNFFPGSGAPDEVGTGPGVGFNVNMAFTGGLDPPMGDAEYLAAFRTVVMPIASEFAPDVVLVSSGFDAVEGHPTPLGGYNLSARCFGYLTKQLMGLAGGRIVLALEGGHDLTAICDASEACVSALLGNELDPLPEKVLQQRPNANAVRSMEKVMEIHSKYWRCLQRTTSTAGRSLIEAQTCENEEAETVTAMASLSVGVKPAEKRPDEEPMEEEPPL

Counter-ions that a name gives are not always drawn.

As for `CN1CCc2c(c3ccccc3n2Cc2ccc(C(=O)NO)cc2)C1` [Tubastatin A HCl, reference compound], inhibition was half-maximal at 3670 nM (IC50).

(Values after patent US10456394B2, “Tetrahydroquinoline substituted hydroxamic acids as selective histone deacetylase 6 inhibitors” (THE BOARD OF TRUSTEES OF THE UNIVERSITY OF ILLINOIS, priority 2016, dated 2019).)
